From ChEMBL document CHEMBL6103538, “Carbonic anhydrases: Moiety appended derivatives, medicinal and pharmacological implications” (Bioorg Med Chem, 2024)

Tests used:
Homo sapiens [1] = organism: Homo sapiens; assay: Selectivity ratio of IC50 for human CA I to IC50 for human CA II
Homo sapiens [2] = organism: Homo sapiens; assay: Selectivity ratio of IC50 for human CA IX to IC50 for human CA II

Row | Ratio IC50 (Homo sapiens [1]) | Ratio IC50 (Homo sapiens [2]) | SMILES
1 | 10.6 | 3.33 | COc1ccc(C2C(C#N)=C(N)Oc3c2c(C)nn3-c2ccc(S(N)(=O)=O)cc2)cc1O (centres undefined)
2 | 4.68 | 4.52 | Cc1nn(-c2ccc(S(N)(=O)=O)cc2)c2c1C(c1ccc(F)cc1F)C(C#N)=C(N)O2 (centres undefined)
